We go through 1 compound from ChEMBL document CHEMBL4354838, “Synthesis and in Vitro and in Vivo Biological Evaluation of Tissue-Specific Bisthiazole Histone Deacetylase (HDAC) Inhibitors” (J Med Chem, 2020).

Protein sequences, listed by entry. Tags and fused reporters are not part of them.
UniProt Q13547, whole entry: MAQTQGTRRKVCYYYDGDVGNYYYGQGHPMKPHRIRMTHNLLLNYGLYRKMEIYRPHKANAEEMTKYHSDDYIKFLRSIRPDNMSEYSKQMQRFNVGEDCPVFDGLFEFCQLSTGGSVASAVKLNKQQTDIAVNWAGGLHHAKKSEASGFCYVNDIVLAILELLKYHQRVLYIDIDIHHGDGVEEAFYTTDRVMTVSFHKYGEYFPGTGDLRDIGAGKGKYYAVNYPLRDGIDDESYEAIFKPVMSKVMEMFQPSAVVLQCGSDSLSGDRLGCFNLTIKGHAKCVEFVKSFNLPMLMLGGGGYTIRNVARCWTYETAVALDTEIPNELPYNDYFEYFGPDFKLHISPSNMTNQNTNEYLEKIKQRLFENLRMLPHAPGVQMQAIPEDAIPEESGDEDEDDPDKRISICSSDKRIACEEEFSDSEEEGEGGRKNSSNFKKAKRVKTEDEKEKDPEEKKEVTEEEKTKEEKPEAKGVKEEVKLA

This assay concerns the target Histone deacetylase 1 (Homo sapiens, UniProt Q13547). The assay can be described thus: biochemical. It is filed as cell-based.

Turning to `C[C@H](NC(=O)c1nc(-c2ncc(-c3ccccc3)s2)sc1C1CC1)c1ccc(C(=O)NO)cc1`, the IC50 lay in the range of 3.59 to 4 nM.
